Our source for the IC50 values is EP1976513B1.

By UniProt entry, the sequences of proteins in these tests, tags left out.
UniProt Q01959, whole entry: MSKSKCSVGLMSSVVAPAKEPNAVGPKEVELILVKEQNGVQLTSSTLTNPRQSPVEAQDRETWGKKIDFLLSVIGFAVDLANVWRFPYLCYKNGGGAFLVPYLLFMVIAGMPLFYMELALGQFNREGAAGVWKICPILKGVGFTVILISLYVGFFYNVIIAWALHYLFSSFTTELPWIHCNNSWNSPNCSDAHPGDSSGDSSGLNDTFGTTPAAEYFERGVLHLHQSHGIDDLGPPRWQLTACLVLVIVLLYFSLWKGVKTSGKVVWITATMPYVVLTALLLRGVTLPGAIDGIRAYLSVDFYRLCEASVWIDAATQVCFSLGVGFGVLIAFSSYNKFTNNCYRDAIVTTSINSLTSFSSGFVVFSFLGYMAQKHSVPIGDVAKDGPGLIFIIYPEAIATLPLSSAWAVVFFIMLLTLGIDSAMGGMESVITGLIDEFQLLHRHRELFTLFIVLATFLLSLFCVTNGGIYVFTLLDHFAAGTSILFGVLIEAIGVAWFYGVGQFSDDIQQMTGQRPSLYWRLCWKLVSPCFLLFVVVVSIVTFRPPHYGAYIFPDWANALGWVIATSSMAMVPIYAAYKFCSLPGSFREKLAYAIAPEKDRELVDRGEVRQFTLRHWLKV
UniProt P31645, whole entry: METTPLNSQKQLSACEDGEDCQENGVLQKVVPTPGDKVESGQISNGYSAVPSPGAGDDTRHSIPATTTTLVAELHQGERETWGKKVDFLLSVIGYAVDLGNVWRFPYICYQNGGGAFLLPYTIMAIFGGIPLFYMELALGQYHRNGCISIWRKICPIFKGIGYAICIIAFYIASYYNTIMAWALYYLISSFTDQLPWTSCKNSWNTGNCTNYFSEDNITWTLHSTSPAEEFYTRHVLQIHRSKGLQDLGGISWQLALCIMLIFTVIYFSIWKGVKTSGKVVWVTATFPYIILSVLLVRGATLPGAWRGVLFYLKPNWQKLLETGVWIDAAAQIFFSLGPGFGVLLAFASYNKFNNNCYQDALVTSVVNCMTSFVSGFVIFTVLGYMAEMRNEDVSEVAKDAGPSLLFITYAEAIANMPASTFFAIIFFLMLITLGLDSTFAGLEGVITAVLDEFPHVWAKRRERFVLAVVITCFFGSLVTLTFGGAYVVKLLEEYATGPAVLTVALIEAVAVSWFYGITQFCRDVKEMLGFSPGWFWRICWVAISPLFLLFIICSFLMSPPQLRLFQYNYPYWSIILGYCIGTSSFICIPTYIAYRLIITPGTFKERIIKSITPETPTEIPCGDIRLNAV

Each structure is given as a SMILES string. A value given as a limit tells only on which side of the number the result lay.

The term IC50 denotes the concentration that inhibits the measured activity by half.

For assay [1], the target named is human dopamine reuptake transporter (Homo sapiens, UniProt Q01959). As to conditions: read-out: Human IC50 (nM) hDAT; recombinant human dopamine transporter (DAT).
Assay [2] addresses human serotonin reuptake transporter (Homo sapiens, UniProt P31645). The following applies: read-out: Human IC50 (nM) hSERT; recombinant human serotonin transporter (SERT).

For the molecule `CN1CCN(C(=O)C2(c3ccc(Cl)c(Cl)c3)CCCCC2)CC1`, the IC50 in assay [1] is 76 nM; in assay [2], above 10000 nM.
